One molecule from US20240018161A1, “MODULATORS OF CYSTIC FIBROSIS TRANSMEMBRANE CONDUCTANCE REGULATOR” (VERTEX PHARMACEUTICALS INCORPORATED, priority 2020, published 2024) can be followed below.

Protein sequences, listed by entry. Tags and fused reporters are not part of them. Chains listed by the source or under a name are the forms on record and can include a tag or linker.
UniProt P13569, with tags, fused parts or gaps DEL508-508: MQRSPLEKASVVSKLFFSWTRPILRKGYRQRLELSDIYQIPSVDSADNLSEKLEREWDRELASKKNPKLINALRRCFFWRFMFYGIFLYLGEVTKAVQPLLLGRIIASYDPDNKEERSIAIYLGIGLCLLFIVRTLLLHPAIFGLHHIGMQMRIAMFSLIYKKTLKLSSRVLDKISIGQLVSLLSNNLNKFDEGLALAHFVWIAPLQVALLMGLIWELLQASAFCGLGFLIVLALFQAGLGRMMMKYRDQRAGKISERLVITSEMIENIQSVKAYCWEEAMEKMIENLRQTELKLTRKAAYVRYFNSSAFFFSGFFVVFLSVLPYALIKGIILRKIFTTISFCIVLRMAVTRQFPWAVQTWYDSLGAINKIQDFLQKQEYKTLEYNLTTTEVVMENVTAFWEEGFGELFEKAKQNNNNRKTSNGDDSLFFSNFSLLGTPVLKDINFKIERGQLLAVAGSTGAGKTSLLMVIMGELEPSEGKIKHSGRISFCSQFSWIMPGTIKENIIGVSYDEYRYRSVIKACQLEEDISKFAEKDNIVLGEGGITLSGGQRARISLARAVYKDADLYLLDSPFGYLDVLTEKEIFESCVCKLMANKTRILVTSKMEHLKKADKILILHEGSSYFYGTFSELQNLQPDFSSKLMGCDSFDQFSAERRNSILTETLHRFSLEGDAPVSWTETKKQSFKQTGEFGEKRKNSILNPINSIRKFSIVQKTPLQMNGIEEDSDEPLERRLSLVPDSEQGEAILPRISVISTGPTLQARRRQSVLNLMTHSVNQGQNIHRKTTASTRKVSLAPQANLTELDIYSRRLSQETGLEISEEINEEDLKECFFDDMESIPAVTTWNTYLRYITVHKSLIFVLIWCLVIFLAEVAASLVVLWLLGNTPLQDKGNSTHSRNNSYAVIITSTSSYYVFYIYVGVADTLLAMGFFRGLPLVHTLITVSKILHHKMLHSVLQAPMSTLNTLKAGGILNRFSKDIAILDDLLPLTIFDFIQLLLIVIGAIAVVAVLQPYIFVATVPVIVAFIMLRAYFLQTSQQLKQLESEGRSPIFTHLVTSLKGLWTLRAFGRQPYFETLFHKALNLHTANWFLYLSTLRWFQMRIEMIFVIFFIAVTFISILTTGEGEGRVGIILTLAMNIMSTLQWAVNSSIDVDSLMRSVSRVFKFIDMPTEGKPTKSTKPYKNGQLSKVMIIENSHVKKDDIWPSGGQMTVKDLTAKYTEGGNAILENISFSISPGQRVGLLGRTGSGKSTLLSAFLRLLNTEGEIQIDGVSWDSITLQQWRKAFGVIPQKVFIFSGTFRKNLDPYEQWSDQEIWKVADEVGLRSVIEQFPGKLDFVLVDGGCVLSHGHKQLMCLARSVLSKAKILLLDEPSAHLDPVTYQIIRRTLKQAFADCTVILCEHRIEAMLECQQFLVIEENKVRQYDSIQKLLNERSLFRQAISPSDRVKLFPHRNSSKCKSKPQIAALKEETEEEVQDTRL

In this assay the target is CFTR-mediated chloride transport in human intestinal epithelial enteroid cells (Homo sapiens, UniProt P13569). Description: Membrane potential dye, Enteroid Assay A. It counts as cell-based. To be noted: read-out: Ent. A EC50. As to the method:
Base medium (ADF+++) consisted of Advanced DMEM/Ham's F12, 2 mM Glutamax, 10 mM HEPES, […] penicillin/streptomycin.
Bath 1 Buffer consisted of 1 mM MgCl2, 160 mM NaCl, 4.5 mM KCl, 10 mM HEPES, 10 mM Glucose, 2 mM CaCl2.
Chloride Free Buffer consisted of 1 mM Magnesium Gluconate, 2 mM Calcium Gluconate, 4.5 mM Potassium Gluconate, 160 mM Sodium Gluconate, 10 mM HEPES, 10 mM Glucose.
Bath1 Dye Solution consisted of Bath 1 Buffer, 0.04% Pluronic F127, 20 μM Methyl Oxonol, 30 μM CaCCinh-A01, 30 μM Chicago Sky Blue.
Chloride Free Dye Solution consisted of Chloride Free Buffer, 0.04% Pluronic F127, 20 μM Methyl Oxonol, 30 μM CaCCinh-A01, 30 μM Chicago Sky Blue.
3. […]
Briefly, cells were washed 5 times in Bath 1 Buffer. […] Chloride transport was initiated by addition of Chloride Free Dye Stimulation Solution and the fluorescence signal was read for 15 min. […] Chloride transport was then expressed as a percentage of the chloride transport following treatment with 3 μM N-[(6-amino-2-pyridyl)sulfonyl]-6-(3-fluoro-5-isobutoxy-phenyl)-2-[(4S)-2,2,4-trimethylpyrrolidin-1-yl]pyridine-3-carboxamide, 3 μM (R)-1-(2,2-difluorobenzo[d][1,3]dioxol-5-yl)-N-(1-(2,3-dihydroxypropyl)-6-fluoro-2-(1-hydroxy-2-methylpropan-2-yl)-1H-indol-5-yl)cyclopropanecarboxamide and 300 nM acute N-[2,4-bis(1,1-dimethylethyl)-5-hydroxyphenyl]-1,4-dihydro-4-oxoquinoline-3-carboxamide triple combination control (% Activity).

Turning to `Cc1cccc(C)c1-c1cc2nc(n1)NS(=O)(=O)c1cccc(c1)C(=O)N1CCN(C3CCC(F)(F)CC3)C[C@@H](O2)[C@H]1CC(C)C` [Compound 158], the EC50 (usually the concentration that produces a half-maximal response) was less than 1 µM.
